Assay outcomes as filed in PubChem.
ASM inhibitor – Inhibitors of Secretory Acid Sphingomyelinase (S-ASM): qHTS; AID 504937, 2011; hit rate 0.006% among 340,000; Potency, µM (highest dose often 57.5 µM), for the others: at the top dose activity change, negative = inhibition, hits mostly inhibitors; placental ASM, HMU-PC fluorogenic substrate, 60 min; Sphingomyelin phosphodiesterase (Homo sapiens), P17405
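HMU-PC0 cleavage (9 uM final) by human placental ASM, 60 min at 37 °C following 10 min compound exposure at RT; stopped at pH 10, fluorescence Ex 386/Em 447 nm.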
Rango release inh – qHTS Assay for Inhibitors of RanGTP induced Rango (Ran-regulated importin-beta cargo) - Importin beta complex dissociation; Snurportin-1 (Homo sapiens) + GTP-binding nuclear protein Ran (Homo sapiens) + Importin …; Biochemical FRET Rango-importin beta, RanGTP-induced dissociation; Potency, µM (doses to about 46.1 µM), without a hit: at the top dose activity change, negative = inhibition; hit rate 0.071% among 340,000; AID 540253, 2011; calls by dose curve; note: % of control where 0% means no effect; nearly all actives have a fitted effect of over 45% in size
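Quantitative HTS using a FRET biosensor: 0.1 uM Rango, 0.25 uM importin beta, 0.6 uM Ran, 2 mM GTP, 0.2 uM RCC1 final, PBS with DTT, Tween-20 and BSA. Post-read taken 45 min after Ran addition.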
Rango-impB inh – qHTS Assay for Inhibitors of Rango (Ran-regulated importin-beta cargo) - Importin beta complex formation; hit rate 0.031% among 340,000; Potency, µM (titrated, usually from 92.2 µM), without a hit: top-dose inhibition of complex formation; Rango CFP/YFP FRET sensor + importin beta, 45 min; AID 540263, 2011; calls by dose curve;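 note: 0% = DMSO wells and 100% = buffer wells lacking importin beta; nearly all actives have a fitted effect of over 15% in size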
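Inhibition scored from the CFP 486 nm/YFP 530 nm FRET ratio 45 min after adding 0.125 microM importin beta to 50 nM Rango biosensor preincubated 5 min with compound (room temperature, PBS with DTT, Tween-20, BSA). No-importin wells as positive control.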
Abeta rescue – qHTS for compounds that reverse cellular toxicity of Amyloid beta (A-beta) peptide in yeast: Primary Screen; AID 1347071, 2019; yeast expressing A-beta42, growth rescue, OD600, 48 h; response scale: 0% DMSO, 100% iron-clioquinol control; hit rate 0.063% among 410,000; Potency, µM (top dose mostly 46.1 µM), most hits filed as activators; note: nearly all actives have a fitted effect of over 55% in size
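Growth rescue measured by 600 nm absorbance after 48 h yeast culture at 30 C with compound. Values normalized between DMSO and an equimolar ferric chloride plus clioquinol control.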
TDP-43 yeast inh – qHTS of TDP-43 Inhibitors | AID 652104, 2013 | Potency, µM (highest dose often 46.1 µM), for inactives: top-dose growth rescue (activation), actives largely listed as activators | TDP-43 expressing yeast growth rescue, BacTiter-Glo, 24 h | hit rate 1.8% among 410,000; note: % of control where 0% means no effect; nearly all actives have a fitted effect of over 50% in size
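Readout is BacTiter-Glo luminescence of cell growth, so inhibitors register as activators. TDP-43-expressing yeast at OD600=0.02 in galactose medium, after raffinose pregrowth to mid-log, were incubated with compound for 24 hr at 30 deg C.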
aSyn yeast inh – qHTS of alpha-syn Inhibitors | Potency, µM (titrated, usually from 46.1 µM), for the others: top-dose growth rescue (activation), hits mostly activators | hit rate 0.14% among 370,000 | Yeast expressing alpha-synuclein, growth rescue, BacTiter-Glo, 24 h; note: % of control where 0% means no effect; nearly all actives have a fitted effect of over 65% in size
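Screening used galactose-induced yeast with toxic alpha-synuclein levels, exposed to compound for 24 hr at 30 deg C. Cell growth, read with BacTiter-Glo luminescence, gave the measured signal.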
An asterisk follows results filed as active; i = inactive; ? = inconclusive; . = no result given. Only some compounds are listed: those with a hit (about 2% of all), similar ones and a draw of the others. Unless noted, calls come from the whole dose curve; as a rule, active = well fitted curve in the direction sought with a large enough effect; inconclusive = small, poorly fitted or top-dose-only effect, or another doubt; inactive = no such curve, though single readings can be large; an effect the other way counts as inactive or inconclusive. Potency is the fitted concentration of half-maximal effect.

[1] Cc1ccc(C)n1-c1ccc(-c2ccnc(N)n2)cc1
[2] Cc1onc(-c2ccccc2)c1-c1ccnc(N)n1
[3] CCOC(=O)N/N=C/c1c(C)nn(-c2cccc(C(F)(F)F)c2)c1Cl
[4] O=C(O)c1ccc(-c2ccc(O)c(F)c2)cc1
[5] Cc1ccc(F)cc1NC(=O)c1c(-c2ccccc2)noc1C
[6] Cc1onc(-c2ccccc2)c1C(=O)Nc1ccccc1NC(=O)c1c(-c2ccccc2)noc1C
[7] CCCOc1ccccc1NC(=O)c1c(-c2ccccc2)noc1C
[8] Fc1ccccc1-n1ncc2c1ncn1nc(Cc3ccccc3)nc21
compound no.	1	2	3	4	5	6	7	8
ASM inhibitor	94%	-3%	-3%	0%	0%	.	-9%	.
Rango release inh	15µM*	?	-12%	7%	-12%	7%	3%	.
Rango-impB inh	?	?	-2%	0%	-1%	7%	58µM*	.
Abeta rescue	i	i	?	i	i	i	i	i
TDP-43 yeast inh	32µM*	10%	13µM*	16µM*	20µM*	7%	?	10µM*
aSyn yeast inh	11%	?	-23%	12%	0%	1%	4%	.

The list goes on; the last two above are carried over.
[7] CCCOc1ccccc1NC(=O)c1c(-c2ccccc2)noc1C
[8] Fc1ccccc1-n1ncc2c1ncn1nc(Cc3ccccc3)nc21
[9] CCOC(=O)C1CCN(C(=O)c2c(C)oc3c2C(=O)c2ccccc2C3=O)CC1
[10] Cc1oc2c(c1C(=O)N1CCC(C)CC1)C(=O)c1ccccc1C2=O
[11] O=C(Oc1ccc2c(c1)OCO2)C12CC3CC(CC(C3)C1)C2
[12] O=C(Oc1ccc(O)cc1)C12CC3CC(CC(C3)C1)C2
[13] O=C(OCC(=O)C12CC3CC(CC(C3)C1)C2)c1ccc(O)cc1
[14] Cc1cc(C)cc(NC(=O)N2CCC(CN3CCCCCC3)CC2)c1
[15] Cc1ccc(C)c(NC(=O)C(OC(=O)c2cnc(C)cn2)c2ccccc2)c1 (stereo not given)
[16] Cc1cnc(C(=O)OC(C(=O)Nc2cc(C(F)(F)F)ccc2Cl)c2ccccc2)cn1 (stereo not given)
compound no.	7	8	9	10	11	12	13	14	15	16
ASM inhibitor	-9%	.	0%	-2%	-2%	-1%	-3%	.	1%	.
Rango release inh	3%	.	-9%	18%	28%	1%	8%	.	14%	21%
Rango-impB inh	58µM*	.	3%	-1%	-3%	3%	4%	.	-2%	0%
Abeta rescue	i	i	i	i	i	i	i	i	i	?
TDP-43 yeast inh	?	10µM*	0%	13µM*	?	14µM*	11µM*	16%	23%	18µM*
aSyn yeast inh	4%	.	-3%	8%	0%	11%	-24%	.	4%	2%

[17] C(=C\c1c[nH]c2ccccc12)/c1ccc2ccccc2n1
[18] O=C(c1sc2ccccc2c1Cl)N(Cc1ccccc1)C1CCS(=O)(=O)C1 (stereo not given)
[19] O=C(c1sc2ccccc2c1Cl)N(Cc1ccco1)C1CCS(=O)(=O)C1 (stereo not given)
[20] FC(F)(F)c1nc(=S)c2ccccc2[nH]1
[21] COc1cccc(CNC(=O)c2c3c(nc4ccccc24)C(=O)N(C2CCCCC2)C3)c1
[22] CC#CCCCC(=O)Nc1cc(OC)nc(OC)n1
[23] CCOC(=O)C1=C(C)NC(C)=C(C(=O)OC)C1c1cccc([N+](=O)[O-])c1 (stereo not given)
[24] CCOC(=O)C1=C(C)NC(C)=C(C(=O)OC)[C@H]1c1cccc([N+](=O)[O-])c1
compound no.	17	18	19	20	21	22	23	24
ASM inhibitor	.	-7%	0%	-8%	.	-2%	-7%	.
Rango release inh	.	-1%	18µM*	-14%	.	-3%	-20%	.
Rango-impB inh	.	-1%	?	1%	.	3%	5%	.
Abeta rescue	.	i	i	i	i	i	i	.
TDP-43 yeast inh	.	0%	-14%	10µM*	11%	14µM*	35µM*	.
aSyn yeast inh	12%	4%	0%	-4%	.	4%	20%	1%

[25] O=C(O)c1ccc(NCc2ccncc2)cc1
[26] O=C(O)c1ccc(NCc2cccc(Br)c2)cc1
[27] c1ccc(N=c2nc(-c3ccccc3)n(-c3ccccc3)s2)cc1
[28] Cc1cc(-c2ccccc2)n2nc(C)c(C#N)c2n1
[29] CCOc1ccc(N(c2nc(-c3ccc(OC)c(OC)c3)no2)c2nc(-c3ccc(OC)c(OC)c3)no2)cc1
[30] COCCSc1nc2c([nH]c3ccccc32)c(=O)n1-c1ccc(OC)c(OC)c1
[31] COc1ccc(C(=O)C(=O)N2CCC(c3ccccc3)CC2)cn1
[32] O=C(C(=O)N1CCC(c2ccccc2)CC1)c1cccc([N+](=O)[O-])c1
compound no.	25	26	27	28	29	30	31	32
ASM inhibitor	2%	-9%	.	80%	.	.	.	.
Rango release inh	-10%	7%	.	-2%	.	.	.	.
Rango-impB inh	3%	?	.	3%	.	.	.	.
Abeta rescue	i	i	.	i	i	i	i	i
TDP-43 yeast inh	-33%	11µM*	.	16µM*	?	-3%	27%	?
aSyn yeast inh	-7%	?	-26%	-12%	.	19%	16µM*	?

[33] COc1ccc(C(=O)C(=O)N2CCC(Cc3ccccc3)CC2)cc1OC
[34] Cc1ccccc1C(=O)Nc1ccccc1C(=O)NCc1ccccc1
[35] Cn1c(NC(=O)c2ccc(F)cc2)nc2ccccc21
[36] CC1COC(=O)C(NNc2ccc(Cl)c(Cl)c2)=N1 (stereo not given)
[37] O=c1[nH]ncc2c3ccccc3n(Cc3cccc(Cl)c3)c12
[38] Nc1ccccc1-c1n[nH]c(=S)s1
[39] Cc1ccc(Cl)cc1N1CCN(C(=O)CCCn2c(=O)[nH]c3ccc(Br)cc3c2=O)CC1
[40] COc1ccc(NC(=O)c2ccco2)cc1NC(=O)c1cccc(OC(C)C)c1
compound no.	33	34	35	36	37	38	39	40
ASM inhibitor	.	-8%	0%	-8%	32µM*	195%	.	-12%
Rango release inh	.	0%	-1%	12%	5%	15µM*	.	-17%
Rango-impB inh	.	-3%	-1%	2%	?	?	.	7%
Abeta rescue	i	i	i	i	i	?	i	i
TDP-43 yeast inh	11µM*	11µM*	28µM*	3.5µM*	3%	-7%	13%	13µM*
aSyn yeast inh	0%	-14%	-6%	13%	1%	-11%	.	1%

Among those listed so far, three have a COOH group:
[4] O=C(O)c1ccc(-c2ccc(O)c(F)c2)cc1
[25] O=C(O)c1ccc(NCc2ccncc2)cc1
[26] O=C(O)c1ccc(NCc2cccc(Br)c2)cc1
compound no.	4	25	26
ASM inhibitor	0%	2%	-9%
Rango release inh	7%	-10%	7%
Rango-impB inh	0%	3%	?
Abeta rescue	i	i	i
TDP-43 yeast inh	16µM*	-33%	11µM*
aSyn yeast inh	12%	-7%	?

Additional entries follow.
[41] COc1cccc(C(=O)Nc2cc(NC(=O)c3ccco3)ccc2OC)c1
[42] COc1ccc(C(=O)Nc2cccc(OC(=O)c3ccco3)c2)cc1
[43] Cn1ccc2c(-c3ccc(C(N)=O)cc3)cc3c(c21)C1CCC3O1 (stereo not given)
[44] Cn1ccc2c(-c3cccc4ccccc34)cc3c(c21)C1CCC3O1 (stereo not given)
[45] COc1ccccc1-c1cc2c(c3c1ccn3C)C1CCC2O1 (stereo not given)
[46] Cn1ccc2c(-c3ccc(F)nc3)cc3c(c21)C1CCC3O1 (stereo not given)
compound no.	41	42	43	44	45	46
ASM inhibitor	-3%	-3%	.	.	.	.
Rango release inh	9%	-13%	.	.	.	.
Rango-impB inh	0%	0%	.	.	.	.
Abeta rescue	i	i	i	i	i	i
TDP-43 yeast inh	?	18µM*	?	16µM*	?	?
aSyn yeast inh	1%	1%	-4%	14%	2%	1%
